In PubChem BioAssay AID1199 (EPA DSSTox, 2008):
The source made the active and inactive calls.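 How the source made its calls: active means a tumour-causing dose and a tumour site recorded for mice in at least one sex group; inconclusive means only government mouse studies exist and were judged inadequate; inactive means mouse studies exist but none gave tumours.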

System: mouse carcinogenicity bioassay, TD50 from CPDB
Assay: DSSTox (CPDBAS) Carcinogenic Potency Database Summary Mouse Bioassay Results
Conditions: TD50_Mouse_Note: no positive results; TargetSites_Mouse_Female: no positive results
Source text: The Carcinogenic Potency Database (CPDB) is a unique and widely used international resource of the results of over 6500 chronic, long-term animal cancer tests on over 1500 chemical substances. The CPDB provides easy access to the bioassay literature, with qualitative and quantitative analyses of both positive and negative experiments that have been published over the past 50 years in the general literature and by the National Cancer Institute/National Toxicology Program. The CPDB standardizes the diverse literature of cancer bioassays that vary widely in protocol, histopathological examination and nomenclature, and in the published author's choices of what information to provide in their papers. Results are reported in the CPDB for tests in rats, mice, hamsters, dogs, and nonhuman primates, and are based on the most positive result among all experiments for each sex-species. The DSSTox CPDBAS (all species) file incorporates data from the CPDB Summary Tables for the full list of over 1500 chemical substances tested in at least one species. Summary bioassay results for Mouse (TD50, tumor sites, male, female, both sexes) are provided in the CPDB Summary Tables and the DSSTox CPDBAS file for over 1000 chemical substances.
TD50 is a standardized quantitative measure of carcinogenic potency (analogous to an LD50) and is reported in the CPDB Summary Table for each species. […]

O=[N+]([O-])C(Cl)(Cl)Cl
outcome: inactive; no positive results
